Experimental data from patent US7115661B1, “Methods and compositions for mitigating pain” (dated 2006).
Like-named read-outs stand apart in the source and are kept apart here.

Amino acid sequences for entries named in this document (tags omitted). A change or cut given only in a name is not applied to a line headed by its entry. Residues count along the entry.
UniProt P14867, 28-456 limits assumed: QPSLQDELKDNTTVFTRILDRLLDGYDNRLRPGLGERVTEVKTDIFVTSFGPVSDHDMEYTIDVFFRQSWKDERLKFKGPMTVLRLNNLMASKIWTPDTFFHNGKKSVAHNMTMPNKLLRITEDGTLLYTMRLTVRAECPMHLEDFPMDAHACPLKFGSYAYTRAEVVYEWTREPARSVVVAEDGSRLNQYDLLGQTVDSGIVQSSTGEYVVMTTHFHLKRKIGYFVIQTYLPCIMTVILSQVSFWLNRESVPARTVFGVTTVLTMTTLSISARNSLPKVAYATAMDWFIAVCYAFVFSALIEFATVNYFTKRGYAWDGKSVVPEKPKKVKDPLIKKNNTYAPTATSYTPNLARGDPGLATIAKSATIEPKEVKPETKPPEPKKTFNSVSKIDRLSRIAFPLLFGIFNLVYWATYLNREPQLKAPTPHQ
UniProt P18505, 26-474 limits assumed: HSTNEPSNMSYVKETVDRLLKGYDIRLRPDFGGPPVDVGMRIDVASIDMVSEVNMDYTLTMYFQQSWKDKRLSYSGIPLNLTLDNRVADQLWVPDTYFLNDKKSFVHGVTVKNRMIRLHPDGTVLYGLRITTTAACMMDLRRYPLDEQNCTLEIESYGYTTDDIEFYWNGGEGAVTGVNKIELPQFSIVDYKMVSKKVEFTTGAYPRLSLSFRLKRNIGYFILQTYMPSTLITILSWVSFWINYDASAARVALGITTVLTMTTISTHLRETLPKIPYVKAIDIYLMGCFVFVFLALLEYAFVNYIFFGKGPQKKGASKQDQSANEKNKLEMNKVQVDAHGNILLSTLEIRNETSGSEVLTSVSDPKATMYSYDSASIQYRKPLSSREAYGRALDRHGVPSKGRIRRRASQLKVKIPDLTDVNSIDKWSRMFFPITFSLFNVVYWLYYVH
UniProt P18507, 40-475 limits assumed: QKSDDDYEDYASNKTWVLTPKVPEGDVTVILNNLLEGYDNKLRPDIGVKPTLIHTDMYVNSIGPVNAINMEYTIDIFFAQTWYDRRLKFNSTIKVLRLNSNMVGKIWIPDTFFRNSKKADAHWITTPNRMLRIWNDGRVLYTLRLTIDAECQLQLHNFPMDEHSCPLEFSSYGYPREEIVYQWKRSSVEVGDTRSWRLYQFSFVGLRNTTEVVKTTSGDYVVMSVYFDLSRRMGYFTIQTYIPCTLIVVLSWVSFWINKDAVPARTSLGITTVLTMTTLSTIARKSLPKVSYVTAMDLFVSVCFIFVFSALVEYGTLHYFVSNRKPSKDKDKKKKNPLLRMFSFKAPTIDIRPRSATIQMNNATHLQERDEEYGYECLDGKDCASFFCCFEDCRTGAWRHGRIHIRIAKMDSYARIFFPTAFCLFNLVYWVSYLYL
UniProt P20595: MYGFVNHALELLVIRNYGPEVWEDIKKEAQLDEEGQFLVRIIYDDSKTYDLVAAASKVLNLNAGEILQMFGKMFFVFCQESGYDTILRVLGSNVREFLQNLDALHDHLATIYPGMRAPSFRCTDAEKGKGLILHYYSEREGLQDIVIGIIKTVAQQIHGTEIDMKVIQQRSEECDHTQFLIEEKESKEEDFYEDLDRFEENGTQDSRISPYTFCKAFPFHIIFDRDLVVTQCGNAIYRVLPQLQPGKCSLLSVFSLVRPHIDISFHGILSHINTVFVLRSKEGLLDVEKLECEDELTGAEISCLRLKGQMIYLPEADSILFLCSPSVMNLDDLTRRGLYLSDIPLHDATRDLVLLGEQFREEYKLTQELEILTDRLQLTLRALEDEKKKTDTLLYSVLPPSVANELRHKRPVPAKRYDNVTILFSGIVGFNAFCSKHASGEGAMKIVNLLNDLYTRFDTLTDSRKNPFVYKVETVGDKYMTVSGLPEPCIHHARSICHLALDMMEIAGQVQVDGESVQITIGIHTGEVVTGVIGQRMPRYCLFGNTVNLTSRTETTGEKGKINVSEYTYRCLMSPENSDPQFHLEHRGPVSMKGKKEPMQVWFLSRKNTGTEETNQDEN

Key:
[1] = biological target: α1β1γ2L isoform of human recombinant GABAA receptors (Homo sapiens, UniProt P14867+P18505+P18507); test: GABA-induced membrane current in Xenopus oocytes, two-electrode voltage clamp; conditions: 200 μM drug, 10 μM GABA, same oocyte
[2] = biological target: T1, soluble guanylyl cyclase (GCase) (Rattus norvegicus, UniProt P20595); test: Activation of soluble guanylyl cyclase, rat aorta homogenate, radioimmunoassay; conditions: for maximal (aorta), relative to GTN: normalized to GTN + 1 mM cysteine maximal response; for EC50: read-out: EC-50 (aorta); for Activation of GCase in the presence of DTT: DTT 2 mM
[3] = biological target: T1, soluble guanylyl cyclase (GCase); test: Activation of soluble guanylyl cyclase, rat hippocampus homogenate; conditions: for maximal (hipp.), relative to GTN: normalized to GTN + 1 mM cysteine maximal response; for EC50: read-out: EC-50 (hipp.)
[4] = system: rat aortic tissue; test: Relaxation of isolated rat aorta contracted with phenylephrine; conditions: read-out: EC-50 for relaxation
[5] = system: GTN-tolerant isolated rat aorta; test: Relaxation of GTN-tolerant isolated rat aorta; conditions: tissue made tolerant with 0.5 mM GTN for 30 min
[6] = system: isolated rat aorta; test: Cyclic GMP accumulation in intact isolated rat aorta; conditions: 1 min
[7] = system: rats; test: Blood pressure in anesthetized rats after bolus intravenous injection; conditions: Va at doses lower than 2 μmol/kg
[8] = system: rats; test: Blood pressure in conscious, freely moving rats after subcutaneous injection; conditions: 400 μmol/kg subcutaneously
[9] = NO release measured amperometrically; conditions: in the absence nor the presence of cysteine
[10] = rat aorta homogenate, absence of any added thiol
[11] = rat aorta homogenate, L-cysteine 1 mM
[12] = rat hippocampus homogenate, L-cysteine 1 mM

Structure (SMILES): Cc1ncsc1CCCl
- potentiation of the control GABA response [1]: substantially potentiated

Structure (SMILES): Cc1cc(=O)oc2cc(SSCC(CO[N+](=O)[O-])O[N+](=O)[O-])ccc12 (stereo not drawn)
- maximal (aorta), relative to GTN ([2]; 1 mM cysteine absent (−)): 1.7
- maximal (aorta), relative to GTN ([2]; 1 mM cysteine present (+)): 2.3
- EC50 ([2]; 1 mM cysteine absent (−)): 1.8 µM
- EC50 ([2]; 1 mM cysteine present (+)): 65 µM
- maximal (hipp.), relative to GTN ([3]; 1 mM cysteine absent (−)): 1.8
- maximal (hipp.), relative to GTN ([3]; 1 mM cysteine present (+)): 3.0
- EC50 ([3]; 1 mM cysteine absent (−)): 17 µM
- EC50 ([3]; 1 mM cysteine present (+)): 51 µM

Structure (SMILES): O=[N+]([O-])OCC(CSS(=O)(=O)O)O[N+](=O)[O-] (stereo not drawn)
- Activation of GCase in the presence of DTT ([2]; rat aorta homogenate): activates GCase
- EC-50 for GCase activation [2, 10]: submillimolar
- EC50 ([4]; first series of experiments): 6.59 µM
- maximal relaxant effect compared to untreated tissue [5]: not significantly different
- change of EC-50 for relaxation in tolerant versus untreated tissue ([5]; difference not statistically significant): increased approximately threefold

Structure (SMILES): O=[N+]([O-])OC1CSSCC1O[N+](=O)[O-] (stereo not drawn)
- Efficacy to stimulate GCase activity compared to GTN [2, 11]: equivalent to GTN
- Potency for activation of GCase compared to GTN [2, 11]: equivalent to GTN
- EC50 ([4]; another series of experiments): 0.0084 µM
- Efficacy to stimulate GCase activity compared to GTN [3, 12]: equivalent to GTN
- Potency for activation of GCase compared to GTN [3, 12]: equivalent to GTN
- cyclic GMP accumulation ([6]; 1 μM drug): did not significantly increase
- cyclic GMP accumulation ([6]; 10 μM drug): significantly increased

Structure (SMILES): O=[N+]([O-])OC1CSSCC1O (stereo not drawn)
- EC50 ([4]; another series of experiments): 0.437 µM
- cyclic GMP accumulation ([6]; 1 μM drug): did not significantly increase
- cyclic GMP accumulation ([6]; 10 μM drug): did not

Structure (SMILES): O=[N+]([O-])OCC(CO[N+](=O)[O-])O[N+](=O)[O-]
- effect on arterial blood pressure [7]: substantial and dose-dependent decrease
- Activation of GCase in the presence of DTT ([2]; rat aorta homogenate): does not
- Activation of GCase without added thiol [2, 10]: requires added cysteine
- effect on arterial blood pressure [8]: small and transient decrease
- NO release at a rate measurable amperometrically [9]: does not release NO at a rate measurable amperometrically
- cyclic GMP accumulation ([6]; 1 μM drug): significantly increased
- cyclic GMP accumulation ([6]; 10 μM drug): significantly increased

Structure (SMILES): COC(=O)c1ccccc1SSCC(CO[N+](=O)[O-])O[N+](=O)[O-] (stereo not drawn)
- maximal (aorta), relative to GTN ([2]; 1 mM cysteine absent (−)): 1.0
- maximal (aorta), relative to GTN ([2]; 1 mM cysteine present (+)): 2.2
- EC50 ([2]; 1 mM cysteine absent (−)): 180 µM
- EC50 ([2]; 1 mM cysteine present (+)): 180 µM
- maximal (hipp.), relative to GTN ([3]; 1 mM cysteine absent (−)): 2.1
- maximal (hipp.), relative to GTN ([3]; 1 mM cysteine present (+)): 5.1
- EC50 ([3]; 1 mM cysteine absent (−)): 57 µM
- EC50 ([3]; 1 mM cysteine present (+)): 140 µM
